Reference: patent publication US20260384438A1, “PYRROLOPYRIMIDINE CARBOXAMIDES” (published 2026)

Chains of the proteins cited; added tags and fusions are not shown. Residues count along the entry.
UniProt P30291, whole entry: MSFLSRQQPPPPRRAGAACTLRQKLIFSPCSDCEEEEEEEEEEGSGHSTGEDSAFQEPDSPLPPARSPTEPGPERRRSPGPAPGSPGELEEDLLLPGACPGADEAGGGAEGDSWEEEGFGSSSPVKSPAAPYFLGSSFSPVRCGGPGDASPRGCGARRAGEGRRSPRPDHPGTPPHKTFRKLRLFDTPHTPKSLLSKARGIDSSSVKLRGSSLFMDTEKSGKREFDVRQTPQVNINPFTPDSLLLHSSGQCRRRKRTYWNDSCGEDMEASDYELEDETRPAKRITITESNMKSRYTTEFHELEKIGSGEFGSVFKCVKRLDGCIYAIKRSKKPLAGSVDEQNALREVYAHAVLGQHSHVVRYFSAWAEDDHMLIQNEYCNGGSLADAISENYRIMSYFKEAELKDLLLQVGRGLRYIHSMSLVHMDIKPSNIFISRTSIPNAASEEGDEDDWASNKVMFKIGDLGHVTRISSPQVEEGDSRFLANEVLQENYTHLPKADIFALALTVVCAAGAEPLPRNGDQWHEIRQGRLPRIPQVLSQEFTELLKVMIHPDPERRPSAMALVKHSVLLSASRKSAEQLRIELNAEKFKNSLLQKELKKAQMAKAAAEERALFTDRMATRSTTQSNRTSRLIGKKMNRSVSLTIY
UniProt P54753, 34-998 limits assumed: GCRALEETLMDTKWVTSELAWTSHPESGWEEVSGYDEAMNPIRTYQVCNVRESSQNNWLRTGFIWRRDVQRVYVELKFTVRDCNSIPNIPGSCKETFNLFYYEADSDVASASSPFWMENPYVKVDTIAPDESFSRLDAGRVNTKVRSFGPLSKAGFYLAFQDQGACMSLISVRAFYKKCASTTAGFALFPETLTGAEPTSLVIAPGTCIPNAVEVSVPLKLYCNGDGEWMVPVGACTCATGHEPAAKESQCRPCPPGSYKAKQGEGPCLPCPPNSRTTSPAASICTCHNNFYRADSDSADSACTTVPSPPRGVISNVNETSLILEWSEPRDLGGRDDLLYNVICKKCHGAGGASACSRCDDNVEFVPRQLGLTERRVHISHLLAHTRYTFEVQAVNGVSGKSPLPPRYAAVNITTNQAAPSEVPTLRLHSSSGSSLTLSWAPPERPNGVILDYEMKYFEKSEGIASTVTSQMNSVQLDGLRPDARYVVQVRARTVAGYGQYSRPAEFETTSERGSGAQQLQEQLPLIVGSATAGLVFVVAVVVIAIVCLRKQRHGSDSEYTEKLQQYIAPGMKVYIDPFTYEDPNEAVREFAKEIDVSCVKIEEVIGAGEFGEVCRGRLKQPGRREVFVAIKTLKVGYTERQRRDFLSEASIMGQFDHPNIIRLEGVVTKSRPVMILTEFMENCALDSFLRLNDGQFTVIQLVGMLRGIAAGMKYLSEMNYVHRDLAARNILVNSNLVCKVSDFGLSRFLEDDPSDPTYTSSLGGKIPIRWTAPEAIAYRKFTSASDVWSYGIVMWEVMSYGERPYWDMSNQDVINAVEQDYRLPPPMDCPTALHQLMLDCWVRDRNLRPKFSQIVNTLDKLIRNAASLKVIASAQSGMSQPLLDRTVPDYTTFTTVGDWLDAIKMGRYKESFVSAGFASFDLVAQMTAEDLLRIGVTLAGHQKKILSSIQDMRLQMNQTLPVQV

Columns and labels:
Log D octanol/PBS pH 7.4 = settings: octanol/PBS pH 7.4, 1 μM
[1] = Aqueous (thermodynamic) solubility, pH 7.4; settings: 0.1 M phosphate buffer pH 7.4, 24 h, 25 °C
WEE1 = WEE1 (Homo sapiens, UniProt P30291); test: NanoBRET target engagement in HEK293T cells, WEE1; settings: read-out: WEE1 INHIBITION IC50, 2 h
EPHB3 = EPHB3 (Homo sapiens, UniProt P54753); test: NanoBRET target engagement in HEK293T cells, EPHB3; settings: read-out: EPHB3 INHIBITION IC50, 2 h

| Compound | LogD (Log D octanol/PBS pH 7.4) | Solubility pH 7.4 [1] | IC50 (WEE1) | IC50 (EPHB3) |
| --- | --- | --- | --- | --- |
| Cc1ncc2c(C(N)=O)c(N)n(-c3c(Cl)ccc(O)c3Cl)c2n1 (single isomer, unassigned) [85, Isomer1] | 0.963 | 611 μM | – | – |
| CCOc1ncc2c(C(N)=O)c(N)n(-c3c(C)ccc(O)c3C)c2n1 (single isomer, unassigned) [83, Isomer2] | 2 | >1000 μM | – | – |
| Cc1ccc(O)c(C)c1-n1c(N)c(C(N)=O)c2cnc(C(C)C)nc21 (single isomer, unassigned) [48, Isomer1] | 2.42 | >1000 μM | – | – |
| Cc1cc2c(nn1)c(C(N)=O)c(N)n2-c1c(C)ccc(O)c1C (single isomer, unassigned) [53, Isomer2] | 1.8 | >1000 μM | – | – |
| CC#Cc1ncc2c(C(N)=O)c(N)n(-c3c(C)ccc(O)c3C)c2n1 (single isomer, unassigned) [93, Isomer1] | 1.87 | >1000 μM | – | – |
| CNc1ncc2c(C(N)=O)c(N)n(-c3c(C)ccc(O)c3C)c2n1 (single isomer, unassigned) [92, Isomer1] | 1.49 | >1000 μM | – | – |
| Cc1ccc(O)c(C)c1-n1c(N)c(C(N)=O)c2cnc(N3CCC(F)(F)C3)nc21 (single isomer, unassigned) [10, Isomer1] | 3.04 | 18 μM | – | – |
| Cc1ncc2c(C(N)=O)c(N)n(-c3c(Cl)ccc(O)c3Cl)c2n1 (single isomer, unassigned) [85, Isomer2] | 0.973 | 760 μM | – | – |
| Cc1ccc(O)c(C)c1-n1c(N)c(C(N)=O)c2cnc(N3CC(C)(C)C3)nc21 (single isomer, unassigned) [135, Isomer2] | 2.69 | 84 μM | – | – |
| Cc1ccc(O)c(C)c1-n1c(N)c(C(N)=O)c2cnc(C3CC3)nc21 (single isomer, unassigned) [50, Isomer2] | 2.6 | >595 μM | – | – |
| Cc1ncc2c(C(N)=O)c(N)n(-c3c(C)ccc(O)c3C)c2n1 (single isomer, unassigned) [1, Isomer2] | 1.38 | 910 μM | – | – |
| Cc1ccc(O)c(C)c1-n1c(N)c(C(N)=O)c2cnc(N3CCCC3)nc21 (single isomer, unassigned) [74, Isomer2] | 2.79 | 11 μM | – | – |
| Cc1cc2c(cn1)c(C(N)=O)c(N)n2-c1c(C)ccc(O)c1C (single isomer, unassigned) [52, Isomer2] | 1.69 | >1000 μM | – | – |
| Cc1ccc(O)c(C)c1-n1c(N)c(C(N)=O)c2cnc(C(F)(F)F)nc21 (single isomer, unassigned) [62, Isomer2] | 2.2 | 447 μM | – | – |
| Cc1ccc(O)c(C)c1-n1c(N)c(C(N)=O)c2cnc(C3CCC3)nc21 (single isomer, unassigned) [71, Isomer2] | 2.61 | 180 μM | – | – |
| Cc1ccc(O)c(C)c1-n1c(N)c(C(N)=O)c2cnc(N3CCN(C)CC3)nc21 (single isomer, unassigned) [70, Isomer2] | 1.48 | 236 μM | – | – |
| Cc1ccc(O)c(C)c1-n1c(N)c(C(N)=O)c2cnc(Cl)nc21 (single isomer, unassigned) [57, Isomer2] | 1.76 | >941 μM | – | – |
| CCn1cc2c(C(N)=O)c(N)n(-c3c(C)ccc(O)c3C)c2nc1=O (single isomer, unassigned) [79, Isomer2] | 1.24 | >1000 μM | – | – |
| Cc1ccc(O)c(C)c1-n1c(N)c(C(N)=O)c2cnc(N3CCN(C)CC3)nc21 (single isomer, unassigned) [70, Isomer1] | 1.42 | 378 μM | – | – |
| Cc1ccc(O)c(C)c1-n1c(N)c(C(N)=O)c2cnc(N3CCC3)nc21 (single isomer, unassigned) [75, Isomer2] | 2.06 | 361 μM | – | – |
| Cc1ncc2c(C(N)=O)c(N)n(-c3c(C)ccc(O)c3C)c2n1 (single isomer, unassigned) [1, Isomer1] | 1.35 | 1263 μM | – | – |
| CC#Cc1ncc2c(C(N)=O)c(N)n(-c3c(C)ccc(O)c3C)c2n1 (single isomer, unassigned) [93, Isomer2] | 1.76 | >1000 μM | – | – |
| Cc1cc2c(nn1)c(C(N)=O)c(N)n2-c1c(C)ccc(O)c1C (single isomer, unassigned) [53, Isomer1] | 1.9 | 797 μM | – | – |
| CCOc1ncc2c(C(N)=O)c(N)n(-c3c(C)ccc(O)c3C)c2n1 (single isomer, unassigned) [83, Isomer1] | 2 | 871 μM | – | – |
| Cc1ccc(O)c(C)c1-n1c(N)c(C(N)=O)c2cn(C)c(=O)cc21 (single isomer, unassigned) [56, Isomer1] | 1 | >1000 μM | – | – |

| Compound | LogD (Log D octanol/PBS pH 7.4) | Solubility pH 7.4 [1] | IC50 (WEE1) | IC50 (EPHB3) |
| --- | --- | --- | --- | --- |
| CCn1cc2c(C(N)=O)c(N)n(-c3c(C)ccc(O)c3C)c2nc1=O (single isomer, unassigned) [79, Isomer1] | 1.55 | 439 μM | – | – |
| Cc1ccc(O)c(C)c1-n1c(N)c(C(N)=O)c2cnc(C3CC3)nc21 (single isomer, unassigned) [50, Isomer1] | 2.3 | >994 μM | – | – |
| CNc1ncc2c(C(N)=O)c(N)n(-c3c(C)ccc(O)c3C)c2n1 (single isomer, unassigned) [92, Isomer2] | 1.35 | >1000 μM | – | – |
| Cc1ccc(O)c(C)c1-n1c(N)c(C(N)=O)c2cn(C)c(=O)cc21 (single isomer, unassigned) [56, Isomer2] | 0.928 | >1000 μM | – | – |
| C=Cc1ncc2c(C(N)=O)c(N)n(-c3c(C)ccc(O)c3C)c2n1 (single isomer, unassigned) [17, Isomer2] | 2.07 | >1000 μM | – | – |
| Cc1ccc(O)c(C)c1-n1c(N)c(C(N)=O)c2cnc(N3CC(C)(C)C3)nc21 (single isomer, unassigned) [135, Isomer1] | 2.75 | 106 μM | – | – |
| CCc1ncc2c(n1)c(-c1cc(O)ccc1C)c(N)n2C(N)=O (single isomer, unassigned) [49, Isomer1] | 1.79 | >995 μM | – | – |
| Cc1ccc(O)c(C)c1-n1c(N)c(C(N)=O)c2cnc(N3CCOCC3)nc21 (single isomer, unassigned) [47, Isomer2] | 1.88 | >944 μM | – | – |
| Cc1ncc2c(C(N)=O)c(N)n(-c3c(Cl)ccc(O)c3C)c2n1 (single isomer, unassigned) [73, Isomer1] | 1.68 | 118 μM | – | – |
| Cc1cc2c(cn1)c(C(N)=O)c(N)n2-c1c(C)ccc(O)c1C (single isomer, unassigned) [52, Isomer1] | 1.78 | >1000 μM | – | – |
| Cc1ccc(O)c(C)c1-n1c(N)c(C(N)=O)c2cnc(C(C)C)nc21 (single isomer, unassigned) [48, Isomer2] | 2.39 | >1000 μM | – | – |
| Cc1ncc2c(C(N)=O)c(N)n(-c3c(Br)ccc(O)c3C)c2n1 (single isomer, unassigned) [86, Isomer1] | 1.69 | 84 μM | – | – |
| Cc1ncc2c(C(N)=O)c(N)n(-c3c(Br)ccc(O)c3C)c2n1 (single isomer, unassigned) [86, Isomer2] | 1.71 | 94 μM | – | – |
| Cc1ccc(O)c(C)c1-n1c(N)c(C(N)=O)c2cnc(N3CCC(F)(F)C3)nc21 (single isomer, unassigned) [10, Isomer2] | 2.93 | 34 μM | – | – |
| Cc1ccc(O)c(C)c1-n1c(N)c(C(N)=O)c2cnc(N3CCCC3)nc21 (single isomer, unassigned) [74, Isomer1] | 2.71 | 46 μM | – | – |
| Cc1ncc2c(C(N)=O)c(N)n(-c3c(C)ccc(O)c3C)c2n1 | – | – | > 9.97 µM | > 9.97 µM |
| Cc1ccc(O)c(C)c1-n1c(N)c(C(N)=O)c2cnc(N3CCC3)nc21 (single isomer, unassigned) [75, Isomer1] | 1.87 | >1000 μM | – | – |
| Cc1ccc(O)c(C)c1-n1c(N)c(C(N)=O)c2cnc(C3CCC3)nc21 (single isomer, unassigned) [71, Isomer1] | 2.62 | 115 μM | – | – |
| Cc1ccc(O)c(C)c1-n1c(N)c(C(N)=O)c2cnc(N3CCOCC3)nc21 (single isomer, unassigned) [47, Isomer1] | 1.92 | >1000 μM | – | – |
| CCc1ncc2c(n1)c(-c1cc(O)ccc1C)c(N)n2C(N)=O (single isomer, unassigned) [49, Isomer2] | 1.81 | >1000 μM | – | – |
| C=Cc1ncc2c(C(N)=O)c(N)n(-c3c(C)ccc(O)c3C)c2n1 (single isomer, unassigned) [17, Isomer1] | 2.12 | >1000 μM | – | – |
| Cc1ccc(O)c(C)c1-n1c(N)c(C(N)=O)c2cnc(Cl)nc21 (single isomer, unassigned) [57, Isomer1] | 1.87 | >918 μM | – | – |
| Cc1ncc2c(C(N)=O)c(N)n(-c3c(Cl)ccc(O)c3C)c2n1 (single isomer, unassigned) [73, Isomer2] | 1.68 | 136 μM | – | – |
| Cc1ccc(O)c(C)c1-n1c(N)c(C(N)=O)c2cnc(C(F)(F)F)nc21 (single isomer, unassigned) [62, Isomer1] | 2.3 | 360 μM | – | – |
